Results reported in PubChem BioAssay AID2796 (The Scripps Research Institute Molecular Screening Center, 2010).
This is a selection; strong and weak results do not stand in their true shares. Activity calls are given as the source filed them. Rule as the data show it: active = activation above about 47%; inactive = the rest.

Chains of the proteins cited; added tags and fusions are not shown. Lines headed by an entry give the natural chain unless they say otherwise; changes in a name come on top.
UniProt P35869: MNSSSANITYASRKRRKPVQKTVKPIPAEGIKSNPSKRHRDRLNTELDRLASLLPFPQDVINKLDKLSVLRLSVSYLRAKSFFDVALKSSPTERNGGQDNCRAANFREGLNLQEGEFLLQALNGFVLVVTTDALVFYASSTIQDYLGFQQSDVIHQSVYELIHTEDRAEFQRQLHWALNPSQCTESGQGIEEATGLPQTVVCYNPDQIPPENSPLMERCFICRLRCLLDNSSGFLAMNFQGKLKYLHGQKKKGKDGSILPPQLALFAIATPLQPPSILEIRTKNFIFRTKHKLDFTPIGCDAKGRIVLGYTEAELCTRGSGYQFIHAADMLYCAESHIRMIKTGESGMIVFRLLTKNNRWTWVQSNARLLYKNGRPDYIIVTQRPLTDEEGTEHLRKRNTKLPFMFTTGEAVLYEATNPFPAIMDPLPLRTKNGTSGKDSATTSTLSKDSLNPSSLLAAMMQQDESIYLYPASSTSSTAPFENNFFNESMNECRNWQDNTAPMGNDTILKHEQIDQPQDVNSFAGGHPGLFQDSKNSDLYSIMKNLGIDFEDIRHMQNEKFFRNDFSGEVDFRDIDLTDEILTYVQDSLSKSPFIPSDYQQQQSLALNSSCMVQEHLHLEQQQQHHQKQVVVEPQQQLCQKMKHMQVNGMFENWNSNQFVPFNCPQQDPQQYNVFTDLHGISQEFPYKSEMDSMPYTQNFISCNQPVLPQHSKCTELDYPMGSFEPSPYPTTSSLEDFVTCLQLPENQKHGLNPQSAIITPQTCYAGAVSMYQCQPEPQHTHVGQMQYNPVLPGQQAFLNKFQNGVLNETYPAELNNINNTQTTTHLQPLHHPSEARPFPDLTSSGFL

Target: Aryl hydrocarbon receptor (Homo sapiens) (UniProt P35869)
Test: AHR activators, primary screen, cell-based, luminescence, luciferase reporter, human (AID 2796);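 also: 0% = vehicle wells and 100% = reference agonist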
Conditions: AHR-responsive luciferase reporter cells, at 5 µM, stronger effect = higher value

SMILES | activation
Cc1ccc(NP(=O)(Oc2ccccc2)Oc2ccccc2)nc1 | inactive: 11.4%
CCc1nc2c(n1)c1c(non1O)c1c2no[n+]1[O-] | inactive: 1.62%
O=[N+]([O-])c1cc([N+](=O)[O-])c(CCNc2ccccc2)c([N+](=O)[O-])c1 | active: 70%
O=[N+]([O-])c1cccc2n[nH]nc12 | inactive: 1.16%
CC(=O)N1C2C3N(C(C)=O)C1C1N(C(C)=O)C(C(N1C(C)=O)N3C(C)=O)N2C(C)=O | inactive: -0.45%
COc1ccc(C2=NCC(CBr)S2)cc1 (stereo unspecified) | inactive: 4.26%
O=[N+]([O-])c1cccc(NC2=NCC(CBr)S2)c1 (stereo unspecified) | inactive: 1.75%
O=[N+]([O-])c1ncn(CCn2ncnc2[N+](=O)[O-])n1 | inactive: -1.5%
CC(C)(C)C(=O)NC(Sc1ccncn1)C(Cl)(Cl)Cl (stereo unspecified) | inactive: -0.33%
O=C(Nc1cc([As](=O)(O)O)ccc1O)c1ccccc1 | inactive: 0.63%
O=C(OC1CN2CCC1CC2)c1cccc(Cl)c1 (stereo unspecified) | inactive: -0.38%
Nc1ccc([As](=O)(O)c2ccc([N+](=O)[O-])cc2)cc1 | inactive: 2.03%
C(Cc1nn[nH]n1)Cc1nn[nH]n1 | inactive: -2.69%
O=[As](O)(c1ccccc1)c1ccc(O)cc1 | inactive: -0.14%
O=[N+]([O-])c1ccc(O)c(/C=N/Nc2ccc([N+](=O)[O-])cc2[N+](=O)[O-])c1 | inactive: 21.9%
O=[N+]([O-])c1ncn(CCn2cnc([N+](=O)[O-])n2)n1 | inactive: -0.82%
CC(=O)NC(SC(=S)N(C)C)C(Cl)(Cl)Cl (stereo unspecified) | inactive: 0.34%
O=P(Nc1nc2ccccc2s1)(c1ccccc1)c1ccccc1 | inactive: 6.61%
C[C@H]1OP(=O)(Oc2ccccc2)[C@H](O)[C@H](O)[C@H]1N=[N+]=[N-] (stereo partly specified) | inactive: 2.04%
O=P(Nc1ccccn1)(c1ccc(Br)cc1)c1ccc(Br)cc1 | inactive: 5%
CN(C)C1(CNC(=O)c2ccc(Cl)c(S(N)(=O)=O)c2)CCCCC1 | inactive: 1.15%
c1nnnn1CCn1cnnn1 | inactive: 0.46%
CC(C)C(=O)NC(Sc1ccccc1)C(Cl)(Cl)Cl (stereo unspecified) | inactive: -4.02%

SMILES | activation
O=P(Nc1nccs1)(c1ccccc1)c1ccccc1 | inactive: 0.21%
CC(=O)Nc1ccc([As](=O)(O)O)c(O)c1 | inactive: 1.18%
CC(=O)Nc1ccc(Oc2c([N+](=O)[O-])cc([N+](=O)[O-])cc2[N+](=O)[O-])cc1 | inactive: 0.89%
Cc1ccccc1CN(C)C(=O)COC(=O)C(O)(c1ccccc1)c1ccccc1 | inactive: -0.68%
C[C@@H]1C=CCP(=O)(Oc2ccccc2)O1 (stereo partly specified) | inactive: 1.23%
C[C@H]1OP(=O)(Oc2ccccc2)C[C@@H]2O[C@@H]21 (stereo partly specified) | inactive: 3.83%
CC(=O)c1ccc(N2CC2c2ccncc2)cc1 (stereo unspecified) | inactive: 0.12%
CC(C)(C)C(=O)NC(Sc1ccccc1)C(Cl)(Cl)Cl (stereo unspecified) | inactive: 16.9%
O=P1(Nc2nc3ccc(Cl)cc3s2)COc2ccccc2O1 (stereo unspecified) | inactive: 20.3%
CCOc1ccc(C2=NCC(CBr)S2)cc1 (stereo unspecified) | inactive: 2.29%
Cc1ccccc1OP(=O)(Nc1ccccn1)Oc1ccccc1C | inactive: 0.15%
CC(NC(=O)COC(=O)C(O)(c1ccccc1)c1ccccc1)c1ccccc1 (stereo unspecified) | inactive: -0.66%
CN(C)C(=O)Oc1noc2ccccc12 | inactive: -0.26%
O=C(OC1CN2CCC1CC2)c1ccccc1 (stereo unspecified) | inactive: 1.47%
CCC(=O)N1C2C3N(C(=O)CC)C1C1N(C(=O)CC)C(C(N1C(=O)CC)N3C(=O)CC)N2C(=O)CC | inactive: -0.46%
COC(=O)c1cc2c(s1)N=C(c1ccccc1)N(C)P2(=O)N1CCOCC1 (stereo unspecified) | inactive: -0.05%
Cc1ccc(OP(=O)(Nc2ccccn2)Oc2ccc(C)cc2)cc1 | inactive: 9.65%
CC(=O)NC(SC(=S)N(CC(C)C)CC(C)C)C(Cl)(Cl)Cl (stereo unspecified) | inactive: 2.03%
c1ccc(-c2nn[nH]n2)c(-c2nn[nH]n2)c1 | inactive: -0.72%
CCOC(=O)NC(Sc1ccccc1)C(Cl)(Cl)Cl (stereo unspecified) | inactive: 4.7%
Cc1ccc(NP(=O)(Oc2cccc(C)c2)Oc2cccc(C)c2)nc1 | inactive: 2.75%
CCNC(=S)/N=C(\N)N[N+](=O)[O-] | inactive: -0.77%
O=C(NC1CCS(=O)(=O)C1)NP(=S)(Oc1ccccc1)Oc1ccccc1 (stereo unspecified) | inactive: 1.89%
